Apparent affinities of Ab-14 variants for a coronavirus HR2 peptide

Source: Li et al. 2023 (doi:10.1038/s41467-023-39022-2), MIT Lincoln Laboratory and A-Alpha Bio; data file from the FLAb repository.

Target peptide (SARS-CoV-2 spike, HR2 region): PDVDLGDISGINAS

Parent scFv Ab-14: VH joined to VL by a 15-residue (Gly4Ser)3 linker. Changes lie in the light chain CDRs alone.
VH: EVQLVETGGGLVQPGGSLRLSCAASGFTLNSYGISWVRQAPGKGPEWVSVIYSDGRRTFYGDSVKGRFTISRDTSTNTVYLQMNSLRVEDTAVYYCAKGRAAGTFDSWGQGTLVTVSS
VL: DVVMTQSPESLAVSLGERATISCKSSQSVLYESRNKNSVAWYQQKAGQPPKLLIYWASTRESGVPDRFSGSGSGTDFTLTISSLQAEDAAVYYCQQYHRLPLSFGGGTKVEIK

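The parent was found by panning a naive human phage display library on the peptide. Designed CDR sequences, proposed from the first random library and measured here. Several design methods are mixed in this list. The scFvs were displayed on barcoded MATa yeast, the peptide on MATalpha yeast. Mating (16 h, 30 °C) was followed by selection of diploids and sequencing of their barcodes. Scores were corrected for input abundance and mapped to Kd with protein pairs of known affinity run in the same pool. The assay was run in six technical replicates.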

The parent's light chain CDRs are KSSQSVLYESRNKNSVA, WASTRES, QQYHRLPLS; each variant's own CDRs replace them letter for letter.
This list holds designs with more than six substitutions.
The read-out is the apparent dissociation constant on a log10 scale (nM): the lower, the stronger.
Averages over replicates are reported, and they cover detected replicates only.
An entry "nd" has no value in the source: the pair was not observed among the diploids in any replicate. This suggests poor binding but is not conclusive.
Three control strains display no target. For all light chain designs, 4% of the pairings with them gave a signal, with a median of 2.64 and one signal in twenty below 1.59, so weak values seen in few replicates may be background.

CDR-L1	CDR-L2	CDR-L3	mean log10 Kd (nM)	detected
TISQSLLMQTSHKNSVA	GEETRYA	QQYHRLPLS	-0.03	6/6
IISQVDAYESRNKNSIA	DQSTRGN	QQYDRLPLS	0.99	6/6
KINERMRSGENSQHSIA	NATEIVH	QQYHNLPLG	1.46	6/6
KIGMTLNQLQQKKNNVA	DLVMREN	QQYFRLPLS	0.11	6/6
WLSMSVEYQSRNKNAVA	SASTRES	QQYHRLPLS	0.02	6/6
KLTDYMQGSIAMDNSIA	QTNIYHE	QQYGRLPLV	1.26	6/6
KLPQKWLYESRNKNNVA	SASCRES	QQYHRLPLS	0.16	6/6
KFMYSGEYQMHEQNNIA	QGNIKTV	QQYFRLPIY	0.66	6/6
TIGPMLMTESRNKNNVA	GMQTRES	QQYHRLPLS	-0.33	6/6
KVSEFMRGLMQHKDSIA	DNVTRNK	QQYDRLPLS	2.14	6/6
KLKYQADHYGMNQNNVA	QADIRAP	QQYNKLPLN	0.07	6/6
HLNGEWNHGANRDNNIA	EAQTVAA	QDYFRLPII	-0.08	6/6
QLQIHDNGYMGMRNNVA	DGGMVRM	QQYARLPLM	0.26	6/6
KIGMTLNQLMHEKNNVA	DLVTREN	QQYHRLPLS	0.15	6/6
MLLQATMYGERSRNSVA	HASTRED	QQYHRLPLI	0.78	6/6
TLYGLSNSMSINKDSVA	EMTTREE	QQYDRLPLI	0.95	6/6
QLDWYNSTATAAKNSVA	GVAHRMN	QQYMRLPLM	1.10	6/6
KLSQVTNSEHKVQNSIA	EMVTREK	QQYDRLPLS	1.14	6/6
HLLQTVMYGQTRKNSVA	HAVTREN	QQYHRLPLS	2.47	3/6
KLEQGFLYEERNKNSVA	HASQRES	QQYHRLPLS	-0.30	6/6
KLSATYRFESQNKNNIA	EMTTREE	QCYHRLPLS	1.72	6/6
QIGMLLNFESSKINNVA	QMETRVN	QQYDRLPLS	0.76	6/6
TLGDVTRMESNKKNSIA	DMSTRES	QQYHRLPLS	0.38	6/6
TIGGVTNGISRSKNSVA	EQSTRED	QQYDRLPLS	0.54	6/6
TLTQVTMVESYNKDSVA	QASTREE	QDYHRLPLS	0.83	6/6
KLSQYVGGETRNKSSLA	DNNTRES	QQYERLPLS	2.70	3/6
MISQIYNMGQFAINSVA	QASTRNE	QQYDRLPLM	1.74	6/6
KIAFNTLIESKNLNSVA	EMTTREY	QDYDRLPLS	2.20	1/6
KVPQSNLYEARNANNVA	NASTRLS	QQYHRLPLS	-0.18	6/6
KYSGSYLGEQRNANSVA	NASTREE	QQYHRLPLS	0.01	6/6
LISGVWDLGSRNYNSVA	QTSTRES	QQYDRLPLE	0.96	6/6
MLWQHDEGFNGVKDAIA	NAELREG	QQYGRLPLS	0.91	6/6
QLDQAYRVGENWKESIA	HGSVRVE	QCYVRLPLS	1.83	5/6
MISQLMNMGQFAINSVA	QAQIRNQ	QQYDRLPLI	2.68	1/6
AMREDFYQGQVEMSAIA	DGEHLNM	QQYSHLPLS	0.59	6/6
SIYDATRMESRNKNPIA	DVSTRPS	QQYDRLPLS	0.21	6/6
KVSQGIFDGERNSHQIA	EVTELCT	QQYSRLPLE	2.06	6/6
TIGQTLMYGMRNRSNVA	EVSERLN	QQYDRLPLM	1.38	6/6
HMSMLTLQGMRHRNSVA	QMTTRVN	QQYDRLPLA	0.60	6/6
MLSQMWAIGQKVKNSVA	QASMRFN	QQYDRLPLI	2.44	6/6
KISQLVNFQGKNKNSVA	QMSTRES	QQYDRLPLS	0.06	6/6
TLHNGDNHDQVSKYSIA	DATLINE	QQYARLPLE	0.25	6/6
KISQVAMMTGKAKNSVA	NAYTRVQ	QQYHRLPLS	0.61	6/6
KIGMTLNTLEHKQNNVA	DLVNREN	QQYFRLPLS	-0.15	6/6
QLQFEDVQYGVNEQAIA	EENQRMQ	QHYFRLPLS	0.15	6/6
IVSQLMLWGMHVKNSIA	EAQTRLN	QQYDRLPLF	nd	0/6
KAQDGELYESRDDNSVA	DASKRLS	QQYHRLPLS	-0.21	6/6
KIERATKGDEYFQESIA	KGDIREK	QQYAQLPLT	1.53	6/6
TISTSMRYESSLKNAIA	NAQTRES	QQYHRLPIS	0.80	6/6
TISQSMQQESHNKNSVA	DLSVRGS	QQYHRLPLS	0.17	6/6
TISQMTALFSQTINNVA	EVSTREN	QQYDRLPLM	0.35	6/6
KLASVTGTEKVHGNNVA	EMETREQ	QQYNRLPLA	0.61	6/6
KFSQSWLYEQRQVNSVA	NASQRLL	QQYHRLPLS	0.23	6/6
MVSQLMVWGMHARNSIA	EAQTRCN	QQYDRLPLF	1.39	6/6
KISQMYRYEQQNSSSIA	EANTREK	QSYHRLPLS	1.67	3/6

Repeated from above, the 4 best binders with a signal in all replicates:

{"CDR-L1": "TIGPMLMTESRNKNNVA", "CDR-L2": "GMQTRES", "CDR-L3": "QQYHRLPLS", "mean log10 Kd (nM)": "-0.33", "detected": "6/6"}
{"CDR-L1": "KLEQGFLYEERNKNSVA", "CDR-L2": "HASQRES", "CDR-L3": "QQYHRLPLS", "mean log10 Kd (nM)": "-0.30", "detected": "6/6"}
{"CDR-L1": "KAQDGELYESRDDNSVA", "CDR-L2": "DASKRLS", "CDR-L3": "QQYHRLPLS", "mean log10 Kd (nM)": "-0.21", "detected": "6/6"}
{"CDR-L1": "KVPQSNLYEARNANNVA", "CDR-L2": "NASTRLS", "CDR-L3": "QQYHRLPLS", "mean log10 Kd (nM)": "-0.18", "detected": "6/6"}

Of ten entries with the parent sequence, four were seen in most replicates (averages 0.34 to 2.37), three in one and three in none, so single entries are noisy.
Values of this round are not directly comparable with the first-round values of the same sequences.
The authors averaged sequences with at least three values out of six and counted those with two or fewer as poor binders.